Values of other authors, collected in article PMC9440028, “Neurotensin analogs by fluoroglycosylation at N^ω-carbamoylated arginines for PET imaging of NTS1-positive tumors” (Scientific Reports, 2022).

Protein sequences, listed by entry. Tags and fused reporters are not part of them.
UniProt P30989, whole entry: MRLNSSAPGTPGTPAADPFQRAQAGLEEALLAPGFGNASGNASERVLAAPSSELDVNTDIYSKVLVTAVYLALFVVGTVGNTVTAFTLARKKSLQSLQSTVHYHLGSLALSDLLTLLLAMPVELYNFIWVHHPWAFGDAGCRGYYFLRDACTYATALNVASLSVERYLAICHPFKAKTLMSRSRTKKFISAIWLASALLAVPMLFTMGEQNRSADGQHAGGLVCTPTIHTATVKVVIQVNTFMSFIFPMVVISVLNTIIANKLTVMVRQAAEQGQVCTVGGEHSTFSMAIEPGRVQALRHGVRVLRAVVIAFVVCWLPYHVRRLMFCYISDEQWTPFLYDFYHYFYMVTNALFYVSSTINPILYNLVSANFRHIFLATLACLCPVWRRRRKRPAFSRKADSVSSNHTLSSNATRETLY

How the values were obtained:
[1] = cited from earlier work
hNTS1R = hNTS1R (Homo sapiens, UniProt P30989); settings: [^3H]UR-MK300, intact HT-29 cells; cited from earlier work

Compound	Stability in human plasma [1]	pKi ± SEM (hNTS1R)
CC(C)C[C@H](NC(=O)[C@@H](NC(=O)[C@H](Cc1ccc(O)cc1)NC(=O)[C@@H]1CCCN1C(=O)[C@H](CCCNC(=N)N)NC(=O)[C@@H](N)CCCNC(=N)N)C(C)(C)C)C(=O)O	readily degraded	–
CN[C@@H](CCCNC(=N)N)C(=O)N[C@@H](CCCNC(=N)N)C(=O)N1CCC[C@H]1C(=O)N[C@@H](Cc1ccc(O)cc1)C(=O)N[C@H](C(=O)N[C@@H](CC(C)C)C(=O)O)C(C)(C)C	high stability	9.07 ± 0.06
